Assay results reported in patent EP4470554A1, “USE OF KALLIKREIN I OR DERIVATIVE THEREOF IN TREATMENT OF VCI, PSCI OR CSVD” (Zonhon Biopharma Institute, Inc., priority 2022, dated 2023).

By UniProt entry, the sequences of proteins in these tests, tags left out.
UniProt P30411, whole entry: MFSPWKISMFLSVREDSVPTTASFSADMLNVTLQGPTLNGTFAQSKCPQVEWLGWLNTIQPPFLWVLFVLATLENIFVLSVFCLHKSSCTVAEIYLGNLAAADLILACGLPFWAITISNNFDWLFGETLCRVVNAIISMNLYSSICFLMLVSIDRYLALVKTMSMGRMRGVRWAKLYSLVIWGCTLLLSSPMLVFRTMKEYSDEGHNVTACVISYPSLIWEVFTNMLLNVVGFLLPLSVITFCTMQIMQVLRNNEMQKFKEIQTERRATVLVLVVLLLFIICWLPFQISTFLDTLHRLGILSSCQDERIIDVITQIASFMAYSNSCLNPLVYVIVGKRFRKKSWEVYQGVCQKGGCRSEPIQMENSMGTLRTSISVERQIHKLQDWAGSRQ

Molecular target: T1, B2 receptor (Homo sapiens, UniProt P30411)
T1 construct: expressed in transfected cells; host or cells: B2-NFAT-CHO-K1 cell line (CHO-K1)
Test: Activation of downstream signals of the B2 receptor by lysyl bradykinin Lys-BK (ERK1/2 and CREB phosphorylation, Western blot)
Format: cell-based
Details: CHO-K1 cells (with B2 receptor); 1µM, 0.5h
Procedure: CHO-K1 cells (with B2 receptor) in the logarithmic growth phase were collected, and viable cell counts were performed using a hemacyte counting plate. The live cell suspension was adjusted to 3 × 10^6cells/mL with medium and seeded in 6-well cell culture plates to a final cell concentration of 3 × 10^5 cells/ well. The cells were cultured in a CO2 incubator at 37.0°C and 5.0% CO2 for 24-48 hours. When the cell density was more than 90%, the cells were washed twice with PBS. The sample (Lys-BK) was prepared with F12 medium in advance, and 1ml of sample was added to each well with a final concentration of 1µM, while the control group was F12 medium. Then the cell culture plate was placed in an incubator at 37.0°C and 5.0% CO2 for 0.5h. Then, the 6-well plate was removed from the incubator and washed twice with PBS, and the PBS was aspirated after the last wash. The prepared protein lysate (RIPA, PMSF, phosphatase inhibitor) was added at 80µL/ well, and the bottom of the well was ground back and back with a scraper to accelerate cell lysis for 1min. The cell debris and the lysate was transferred to a centrifuge tube and centrifuged at 12000rpm for 10min at 4°C. […] The same amount of protein samples and pre-stained markers were loaded into 10% SDS-PAGE for gel running, membrane transfer, blocking, antibody incubation, and luminescence identification. […]

phosphorylation of downstream CREB (qualitative): could activate the phosphorylation
phosphorylation of downstream p-ERK1/2 (qualitative): could activate the phosphorylation
Substance: lysyl bradykinin [Lys-BK]
